Test [1] has as its target ATP-dependent translocase ABCB1 (Homo sapiens, UniProt P08183). The test can be described thus: Inhibition of MDR1 expressed in MDCK cells assessed as calcein AM accumulation by fluorescence assay.
Test [2] deals with Multidrug resistance-associated protein 1 (Homo sapiens, UniProt P33527). The settings on record: mdck.

Chains of the proteins cited; added tags and fusions are not shown. Lines headed by an entry give the natural chain unless they say otherwise; changes in a name come on top.
UniProt P08183, whole entry, looked up: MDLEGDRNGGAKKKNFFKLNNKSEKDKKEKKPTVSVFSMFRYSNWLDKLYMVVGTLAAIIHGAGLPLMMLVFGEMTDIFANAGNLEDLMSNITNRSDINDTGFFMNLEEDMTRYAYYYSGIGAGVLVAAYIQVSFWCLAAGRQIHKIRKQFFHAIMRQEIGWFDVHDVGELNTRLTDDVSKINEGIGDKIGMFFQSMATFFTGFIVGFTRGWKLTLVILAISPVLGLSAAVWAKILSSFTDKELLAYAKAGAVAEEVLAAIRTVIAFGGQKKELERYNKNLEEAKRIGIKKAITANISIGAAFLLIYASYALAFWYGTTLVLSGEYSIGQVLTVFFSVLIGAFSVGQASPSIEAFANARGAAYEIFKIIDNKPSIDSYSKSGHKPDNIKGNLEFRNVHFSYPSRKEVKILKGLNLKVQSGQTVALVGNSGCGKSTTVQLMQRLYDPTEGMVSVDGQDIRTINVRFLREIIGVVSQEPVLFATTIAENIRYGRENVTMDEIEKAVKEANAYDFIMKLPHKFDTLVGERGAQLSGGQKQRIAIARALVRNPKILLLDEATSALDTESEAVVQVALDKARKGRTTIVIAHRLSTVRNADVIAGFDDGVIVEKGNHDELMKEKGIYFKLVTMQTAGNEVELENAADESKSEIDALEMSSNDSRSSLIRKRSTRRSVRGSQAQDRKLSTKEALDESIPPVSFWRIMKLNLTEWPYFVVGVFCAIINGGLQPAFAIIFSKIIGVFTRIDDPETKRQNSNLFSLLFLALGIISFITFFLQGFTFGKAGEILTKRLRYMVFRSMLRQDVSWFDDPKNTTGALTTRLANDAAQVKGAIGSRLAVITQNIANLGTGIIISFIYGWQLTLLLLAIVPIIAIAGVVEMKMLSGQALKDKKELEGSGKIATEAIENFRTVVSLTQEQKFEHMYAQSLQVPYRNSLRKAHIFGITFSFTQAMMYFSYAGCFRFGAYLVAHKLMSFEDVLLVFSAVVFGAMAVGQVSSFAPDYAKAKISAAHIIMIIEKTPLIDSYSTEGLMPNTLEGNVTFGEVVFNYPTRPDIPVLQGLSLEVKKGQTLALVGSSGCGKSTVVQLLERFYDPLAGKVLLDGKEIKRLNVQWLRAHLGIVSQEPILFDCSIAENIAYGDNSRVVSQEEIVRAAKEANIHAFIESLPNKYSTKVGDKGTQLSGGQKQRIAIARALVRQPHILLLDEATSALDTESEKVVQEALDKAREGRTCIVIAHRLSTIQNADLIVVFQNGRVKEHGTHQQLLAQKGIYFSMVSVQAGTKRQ
UniProt P33527: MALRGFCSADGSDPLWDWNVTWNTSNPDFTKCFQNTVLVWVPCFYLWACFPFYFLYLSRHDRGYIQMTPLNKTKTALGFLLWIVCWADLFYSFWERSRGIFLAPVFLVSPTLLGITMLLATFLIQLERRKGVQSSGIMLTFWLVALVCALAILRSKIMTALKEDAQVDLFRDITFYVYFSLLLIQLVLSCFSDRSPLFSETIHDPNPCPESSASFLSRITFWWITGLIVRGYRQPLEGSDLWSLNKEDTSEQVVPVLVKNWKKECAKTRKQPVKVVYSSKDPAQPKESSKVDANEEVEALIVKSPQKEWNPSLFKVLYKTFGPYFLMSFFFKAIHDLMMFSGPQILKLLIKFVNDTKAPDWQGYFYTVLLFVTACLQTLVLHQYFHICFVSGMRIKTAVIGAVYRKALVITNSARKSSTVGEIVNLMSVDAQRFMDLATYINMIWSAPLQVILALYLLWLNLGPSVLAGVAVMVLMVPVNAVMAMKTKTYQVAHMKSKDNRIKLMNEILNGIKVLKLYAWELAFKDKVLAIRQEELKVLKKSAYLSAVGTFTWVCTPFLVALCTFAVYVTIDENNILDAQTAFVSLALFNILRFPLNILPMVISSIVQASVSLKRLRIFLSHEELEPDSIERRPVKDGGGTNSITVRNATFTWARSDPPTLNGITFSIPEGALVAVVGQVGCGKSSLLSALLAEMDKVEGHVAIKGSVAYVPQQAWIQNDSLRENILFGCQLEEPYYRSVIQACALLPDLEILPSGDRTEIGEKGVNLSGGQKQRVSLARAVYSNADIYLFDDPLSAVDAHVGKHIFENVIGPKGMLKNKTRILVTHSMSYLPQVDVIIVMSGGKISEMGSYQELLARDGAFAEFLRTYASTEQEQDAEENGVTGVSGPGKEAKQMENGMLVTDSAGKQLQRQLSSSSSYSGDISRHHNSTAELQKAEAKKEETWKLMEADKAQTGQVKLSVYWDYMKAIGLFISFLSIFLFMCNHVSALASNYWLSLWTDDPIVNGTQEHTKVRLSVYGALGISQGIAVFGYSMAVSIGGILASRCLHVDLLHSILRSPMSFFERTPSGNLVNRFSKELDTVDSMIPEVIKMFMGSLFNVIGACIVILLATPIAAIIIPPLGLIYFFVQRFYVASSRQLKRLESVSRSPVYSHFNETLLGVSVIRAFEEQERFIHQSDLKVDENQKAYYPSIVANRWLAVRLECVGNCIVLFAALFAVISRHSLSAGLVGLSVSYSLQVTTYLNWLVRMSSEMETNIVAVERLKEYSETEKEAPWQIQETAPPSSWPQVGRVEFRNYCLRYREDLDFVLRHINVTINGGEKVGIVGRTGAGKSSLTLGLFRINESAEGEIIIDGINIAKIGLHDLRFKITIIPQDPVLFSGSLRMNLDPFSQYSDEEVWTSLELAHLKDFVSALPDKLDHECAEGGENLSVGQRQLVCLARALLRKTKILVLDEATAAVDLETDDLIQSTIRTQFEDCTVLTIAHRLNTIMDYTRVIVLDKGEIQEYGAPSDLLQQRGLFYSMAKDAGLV

Turning to `O=[N+]([O-])c1no[n+]([O-])c1-c1ccccc1`, the values for the concentration for a half-maximal effect (EC50) in test [1] and in test [2] were over 100 µM and 98 µM, respectively.

As usually defined, the EC50 is the concentration giving half of the maximal effect.

Values taken from ChEMBL document CHEMBL1212912, “Phenylsulfonylfuroxans as modulators of multidrug-resistance-associated protein-1 and P-glycoprotein” (J Med Chem, 2010).
